{"source": "patent US6171294A", "key": {"[1]": {"assay": "transdermal electrotransport flux / delivery efficiency of sufentanil"}, "[2]": {"settings": "cited from earlier work"}, "[3]": {"test_system": "silver ion migration into the patient's skin", "assay": "drug loading needed to prevent silver ion migration / TED and to induce and maintain analgesia during electrotransport delivery", "settings": "in vivo"}, "[4]": {"assay": "in vitro transdermal electrotransport fentanyl flux, two-compartment diffusion cell, constant DC current"}, "[5]": {"settings": "electrotransport delivery, citrate buffer pH 5"}}, "note": "Where two headings read alike, the source gives them in different places. This is a selection: effects in other tests are not listed, and their absence says nothing."}
{"compound": "CCC(=O)N(c1ccccc1)C1(COC)CCN(CCc2cccs2)CC1", "values": [{"measurement": "transdermal electrotransport delivery efficiency relative to fentanyl", "setting": "[1]; rate of drug delivered per unit of applied electrotransport current, vs fentanyl", "value": "one-third"}, {"measurement": "equivalent minimum concentration for concentration-independent flux", "setting": "[1]; sufentanil citrate, equivalent to 1.7 mM", "value": "about 1 mg/mL"}, {"measurement": "minimum concentration below which transdermal electrotransport flux becomes dependent on concentration", "setting": "[1]; sufentanil salt in donor reservoir solution", "value": "about 1.7 mM"}, {"measurement": "lag time (time required to achieve peak plasma levels)", "setting": "[2]; [5]", "value": 1.5, "unit": "h"}, {"measurement": "lag time (time required to achieve peak plasma levels)", "setting": "[2]; passive transdermal patches", "value": 14, "unit": "h"}, {"measurement": "plasma concentration by simple diffusion", "setting": "[2]; simple (passive) diffusion, citrate buffer pH 5", "value": "did not produce any detectable plasma concentration"}, {"measurement": "sufentanil HCl loading needed to prevent silver ion migration relative to analgesically effective loading", "setting": "[3]", "value": "at least 4 times"}]}
{"compound": "CCC(=O)N(c1ccccc1)C1CCN(CCc2ccccc2)CC1", "values": [{"measurement": "time to steady state transdermal flux", "setting": "[4]; 200 μA (100 μA/cm^2), average of 6 runs", "value": 8, "unit": "h"}, {"measurement": "normalized transdermal flux (percentage of steady state flux)", "setting": "[4]; fentanyl HCl concentrations above about 6 mg/mL", "value": 100, "unit": "%"}, {"measurement": "lag time (time required to achieve peak plasma levels)", "setting": "[2]; [5]", "value": 1.5, "unit": "h"}, {"measurement": "lag time (time required to achieve peak plasma levels)", "setting": "[2]; passive transdermal patches", "value": 14, "unit": "h"}]}
